Assay results taken from ChEMBL document CHEMBL4359824, “Dual FLT3 inhibitors: Against the drug resistance of acute myeloid leukemia in recent decade” (Eur J Med Chem, 2019).

The chains behind the UniProt entries cited, without tags or fusion partners.
UniProt P36888, whole entry: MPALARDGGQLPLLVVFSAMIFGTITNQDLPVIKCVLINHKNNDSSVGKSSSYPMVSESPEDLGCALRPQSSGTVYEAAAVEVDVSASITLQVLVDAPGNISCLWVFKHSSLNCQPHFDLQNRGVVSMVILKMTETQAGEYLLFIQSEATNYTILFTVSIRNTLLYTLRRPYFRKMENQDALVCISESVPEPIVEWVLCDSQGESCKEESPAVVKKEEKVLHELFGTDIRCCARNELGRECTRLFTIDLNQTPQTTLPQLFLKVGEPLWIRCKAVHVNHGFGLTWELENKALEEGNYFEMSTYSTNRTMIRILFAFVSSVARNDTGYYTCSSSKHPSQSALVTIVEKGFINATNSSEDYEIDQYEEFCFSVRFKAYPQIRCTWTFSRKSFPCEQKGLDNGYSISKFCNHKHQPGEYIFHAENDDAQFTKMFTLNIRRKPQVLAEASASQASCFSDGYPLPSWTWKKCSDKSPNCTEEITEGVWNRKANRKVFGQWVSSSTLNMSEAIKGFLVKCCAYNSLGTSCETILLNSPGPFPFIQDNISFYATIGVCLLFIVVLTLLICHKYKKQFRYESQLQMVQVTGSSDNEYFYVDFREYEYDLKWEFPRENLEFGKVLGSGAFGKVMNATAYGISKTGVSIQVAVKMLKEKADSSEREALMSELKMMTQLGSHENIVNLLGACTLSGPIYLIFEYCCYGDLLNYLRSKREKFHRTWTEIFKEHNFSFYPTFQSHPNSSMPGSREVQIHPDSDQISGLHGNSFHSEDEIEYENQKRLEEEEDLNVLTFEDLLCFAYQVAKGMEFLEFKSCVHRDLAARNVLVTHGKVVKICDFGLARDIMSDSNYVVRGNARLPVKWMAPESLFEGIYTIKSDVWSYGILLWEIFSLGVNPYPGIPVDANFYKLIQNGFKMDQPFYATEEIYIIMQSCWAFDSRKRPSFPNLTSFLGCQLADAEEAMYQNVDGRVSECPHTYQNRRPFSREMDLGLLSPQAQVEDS

Target: Receptor-type tyrosine-protein kinase FLT3 (Homo sapiens, UniProt P36888)

IC50: 23 nM
SMILES: C1=C/COCc2cc(ccc2OCCN2CCCC2)Nc2nccc(n2)-c2cccc(c2)COC/1 [PACRITINIB]
